# Test results published in the supplement of paper PMC10498489.
# The hits were mostly taken out for another list; the other results follow.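 The calls were made as follows: active = median modified Z-score above 1.96; inactive = 1.96 or below.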
# Test system: HepG2 Srxn1-GFP reporter cells (+30 nM CDDO-Me)
# Assay: Srxn1-GFP intensity median modified Z-score relative to plate median; higher = stronger NRF2 / oxidative stress reporter activation, active = hit call of the paper
# Settings: 10 µM; exposure time: 24h
# Method in brief: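 In 96-well plates holding 20,000 HepG2 Srxn1-GFP BAC reporter cells per well, compound at 10 μM and an NRF2 activator at 30 nM were added together for 24 h, with DMSO at ≤0.1%, across three replicate plates. After fixation in formaldehyde and Hoechst staining, confocal images were analysed cell by cell for cytoplasmic GFP, and images containing under 100 cells were excluded. Values are replicate medians of the per-plate modified Z-score of GFP intensity, scaled by 1.4826 × median absolute deviation.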
row,Structure (SMILES),Srxn1-GFP intensity median modified Z-score
1,COc1c2ccccc2nc2occc12 [euspeclibcmpd1730],inactive: -0.0478
